This is an account of results in PubChem BioAssay AID2435 (The Scripps Research Institute Molecular Screening Center, 2010).

Sequences of proteins named here, by UniProt entry; tags and fusion partners are left off.
UniProt P30559, whole entry: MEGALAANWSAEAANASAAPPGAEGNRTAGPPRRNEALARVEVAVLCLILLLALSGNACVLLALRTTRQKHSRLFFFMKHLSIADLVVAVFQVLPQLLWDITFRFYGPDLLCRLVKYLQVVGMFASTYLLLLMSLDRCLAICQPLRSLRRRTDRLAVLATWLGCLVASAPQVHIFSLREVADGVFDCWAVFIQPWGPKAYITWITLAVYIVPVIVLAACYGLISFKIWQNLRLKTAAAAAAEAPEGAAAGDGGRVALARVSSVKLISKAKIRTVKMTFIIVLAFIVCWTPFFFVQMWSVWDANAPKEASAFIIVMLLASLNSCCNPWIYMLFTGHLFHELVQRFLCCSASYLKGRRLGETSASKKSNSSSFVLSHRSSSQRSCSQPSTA

The list shows a part of the results, in another mix than the full data. Activity calls are given as the source filed them.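 Rule for the calls: active = activation above the mean of all tested compounds plus 3 SD, cutoff set per screening run (cut at about 20% in these data); inactive = the rest.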

The assay has as its target Oxytocin receptor (Homo sapiens) (UniProt P30559). Description: human OXTR agonists, primary screen, fluorescence, CHO-OTR cells, Fluo-8 calcium (AID 2435).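 Note: peak over basal fluorescence ratio from a 100 s FLIPR kinetic read.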 To be noted: Fluo-8 calcium fluorescence, at 3 µM, stronger effect = higher value, normalized: DMSO 0%, oxytocin 100%.
Consider `Nc1cccc2c([As](=O)(O)O)cccc12`, for which the activation was inactive: 18.4%.
